Data as given in PMC7452071 (Acta Pharmaceutica Sinica. B, 2019).

Tested on: HCT116 cells
Experiment: Flow cytometry assay of cell apoptosis
Assay type: cell-based, human
Details: 48 h

O=C(CCCCCCC(=O)Nc1ccccc1)NO [Compound 1, vorinostat, reference compound] was tested, and the “Percentage of apoptotic cells” value (HCT116, 0.5 μmol/L) was 18.3%, the “Percentage of apoptotic cells” value (HCT116, 1 μmol/L) was 39.8% and the “Percentage of apoptotic cells” value (HCT116, 5 μmol/L) was 71.4%.
